Results published in US7888061B2, “Method of stabilising or reactivating a creatinine sensor with a divalent manganese ion” (Radiometer Medical ApS, priority 2005, dated 2011).
Read-outs that look alike come from different tables or passages of the source.

By UniProt entry, the sequences of proteins in these tests, tags left out. Where a name states a change or a piece, a line headed by the entry shows the natural chain unless it says otherwise.
UniProt P83772: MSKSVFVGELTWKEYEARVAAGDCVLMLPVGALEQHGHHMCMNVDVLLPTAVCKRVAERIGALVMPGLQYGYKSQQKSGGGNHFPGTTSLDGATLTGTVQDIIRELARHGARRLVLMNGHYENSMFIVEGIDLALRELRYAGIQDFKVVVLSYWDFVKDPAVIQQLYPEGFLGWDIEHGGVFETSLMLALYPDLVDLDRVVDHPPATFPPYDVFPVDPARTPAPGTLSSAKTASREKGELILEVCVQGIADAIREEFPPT

Biological target: creatininase (Pseudomonas putida, UniProt P83772)
Description: The following examples are intended to illustrate the invention without limiting the invention. In all of the examples, creatininase from Pseudomonas putida was used, obtained from Roche Diagnostics, Mannheim, Germany.
The stability of the creatinine sensor was tested by observing the sensor responses to calibration solutions containing each of the substrates creatinine and creatine.
The calibration solutions were prepared by dissolving about 200 μM creatinine in the Radiometer Calibration Solution 1 S1720 and about 200 μM creatine in the Radiometer Calibration Solution 2 S1730. These solutions were repeatedly introduced into the apparatus one after the other and sensor responses were obtained.
It is convenient to depict the relation between the creatinine sensor response to creatinine relative to the creatinine sensor response to creatine by the following ratio: R=response to creatinine/response to creatine.
If R is constant, the creatininase activity is stable. A declining value for R indicates an overall loss of creatininase activity.
The same experiment as described above was conducted with five creatinine sensors having a significant initial excess of creatininase. In FIG. 4, R is depicted for this experiment.

manganese(II) acetate
R = response to creatinine/response to creatine (relative sensor response) (2 μM in Rinse Solution for 5½ days after 2¾ days without, two sensors with nearly no initial excess of creatininase, FIG. 3): stabilized
R = response to creatinine/response to creatine (relative sensor response) (10 μM in Rinse Solutions after 18 days without (R had decreased to 0.9), five sensors with significant initial excess of creatininase, FIG. 4): 1.3
